Measurements from patent US20050002900A1, “Method of treating estrogen responsive breast cancer” (priority 2001, published 2005).

How the values were obtained:
[1] = test system: human adipocytes; assay: Estradiol production by cultured human adipocytes (Active Estradiol EIA kit); format: cell-based; conditions: interferon alone, FIG. 3
Description: (§1) Human subcutaneous cultured adipocytes and preadipocytes, catalog nos. SP-1012, SP-1024, SP-1096, SP-75, or SP-25 were purchased from Zen-Bio, Inc. (Research Triangle Park, N.C.) and cultured according to the manufacturer's instructions.
The culture medium of the preadipocytes was supplemented with 0.1 μg/ml IFN-γ and increasing concentrations of either TNF-α or TNF-β as shown in FIG. 1. Estradiol concentrations were measured using the Active™ Estradiol EIA kit according to the manufacturer's instructions (catalog no. DSL-10-4300, Diagnostic Systems Laboratories, Inc., Webster, Tex.).
(§2) The isolated human adipocytes were also treated with different interferon family members: IFN-α, -β, and -γ.

[2] = test system: aromatase mRNA; assay: RT-PCR of aromatase mRNA in cultured adipocytes; format: cell-based, human; conditions: interferon alone, endogenous expression, FIG. 3
Description: as §1
Adipocyte cultures were treated with IL-1-β, IFN-γ, TNF-α, and combinations of IL-1-β and IFN-γ and TNF-α and IFN-γ. Consequently, total RNA from cultured adipocytes was isolated using conventional methods. The reverse transcriptase polymerase chain reaction (RT-PCR) was performed using aromatase specific primers. The amplified aromatase cDNA fragments produced by RT-PCR were separated on an agarose gel. As shown in the FIG. 2, IL-1β and TNF-α alone induced transcription of aromatase mRNA compared to untreated control. However, the administration of IFN-γ inhibits the transcription of aromatase mRNA when given together with IL-1β or TNFα. […] The estradiol production by the cells is shown as pikograms/ml (pg/ml) below the photograph of the gel showing the aromatase mRNA levels.
as §2

expression of aromatase mRNA in human adipocytes [2]: significantly increased
Substance: IFN-β: interferon family member
estradiol production increase upon interferon induction [1]: about 16 fold
